{"sequences": {"note": "By UniProt entry, the sequences of proteins in these tests, tags left out.", "UniProt P16473, whole entry, looked up": "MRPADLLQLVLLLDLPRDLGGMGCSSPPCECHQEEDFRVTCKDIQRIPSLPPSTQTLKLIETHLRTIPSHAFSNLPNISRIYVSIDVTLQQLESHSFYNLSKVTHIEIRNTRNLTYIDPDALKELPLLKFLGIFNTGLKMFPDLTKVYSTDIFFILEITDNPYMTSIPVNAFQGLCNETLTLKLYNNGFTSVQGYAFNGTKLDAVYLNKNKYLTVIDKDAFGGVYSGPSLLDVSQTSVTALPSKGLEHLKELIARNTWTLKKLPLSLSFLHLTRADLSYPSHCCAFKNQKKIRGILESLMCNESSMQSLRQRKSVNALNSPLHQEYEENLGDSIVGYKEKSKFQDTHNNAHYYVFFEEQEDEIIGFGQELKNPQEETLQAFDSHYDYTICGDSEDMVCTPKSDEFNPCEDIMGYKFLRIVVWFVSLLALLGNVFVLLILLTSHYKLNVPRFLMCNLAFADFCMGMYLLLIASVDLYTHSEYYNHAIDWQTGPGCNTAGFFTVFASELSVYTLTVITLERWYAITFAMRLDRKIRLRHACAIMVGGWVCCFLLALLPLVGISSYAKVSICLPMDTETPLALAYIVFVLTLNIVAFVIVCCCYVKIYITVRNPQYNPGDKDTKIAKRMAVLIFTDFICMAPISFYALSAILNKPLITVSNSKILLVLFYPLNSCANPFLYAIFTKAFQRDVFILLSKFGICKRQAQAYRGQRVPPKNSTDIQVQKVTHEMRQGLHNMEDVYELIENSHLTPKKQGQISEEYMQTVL"}, "source": "PubChem BioAssay AID504810", "about": "(National Center for Advancing Translational Sciences (NCATS), 2011)", "note": "Several values for one entry are separate records, joined by “and”; a condition that tells them apart may be missing. Identical values can stand only once. This is a selection; strong and weak results do not stand in their true shares. Activity calls are given as the source filed them.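 Rule for the calls: active = activity change below a set negative limit, meaning inhibition stronger than a set level (cut at about -70% in these data); inconclusive = activity change between two set negative limits; inactive = the rest.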 % is set by controls: 0 for no effect and ±100 for the full control effect."}
{"biological_target": "Thyrotropin receptor (Homo sapiens) (UniProt P16473)", "experiment": "Antagonists of the Thyroid Stimulating Hormone Receptor: HTS campaign", "details": "TSHR-expressing cells, TSH-stimulated cAMP HTRF, 2 h; at 11.5 µM; stronger effect = lower value", "outline": "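Read-out is FRET at 665 nm (cryptate excitation 337 nm) from a cryptate-tagged anti-cAMP antibody, competed by cell cAMP against cAMP-d2. Compounds are tested on freshly harvested TSHR cells challenged with 4nM TSH (EC80) for 2 hours at 37 deg C.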"}
{"smiles": "COc1ccccc1CNC(=O)COC(=O)C(O)(c1ccccc1)c1ccccc1", "activity change, negative = inhibition": "inactive: 6.77%"}
{"smiles": "CC(C)/C=N\\N=C(\\N)N[N+](=O)[O-]", "activity change, negative = inhibition": "inactive: 8.35%"}
{"smiles": "O=[As](O)(c1ccccc1Br)c1ccccc1Br", "activity change, negative = inhibition": "inactive: -8.72%"}
{"smiles": "CCOP(=O)(NC(=NC(C)c1ccccc1)NC(C)c1ccccc1)OCC", "note": "(stereo unspecified)", "activity change, negative = inhibition": "inactive: 2.14%"}
{"smiles": "CCC1=CC2Cc3nc4ccc(Cl)cc4c(N)c3C(C1)C2", "note": "(stereo unspecified)", "activity change, negative = inhibition": "inactive: -9.62%"}
{"smiles": "O=P1(Nc2ccccn2)COc2ccccc2OC1", "activity change, negative = inhibition": "inactive: -5.96%"}
{"smiles": "CCOP(=O)(Nc1ccc(C)cn1)OCC", "activity change, negative = inhibition": "inactive: 21.4%"}
{"smiles": "CN(CCCl)Cc1cc(Cl)c(NC2=NCCN2)c(Cl)c1", "activity change, negative = inhibition": "inactive: -4.46%"}
{"smiles": "CC(C)(C)C(=O)NC(Sc1ncccn1)C(Cl)(Cl)Cl", "note": "(stereo unspecified)", "activity change, negative = inhibition": "inactive: -8.34%"}
{"smiles": "Clc1n[nH]nc1-c1nn[nH][15n]1", "activity change, negative = inhibition": "inactive: 0.557%"}
{"smiles": "O=P1(Nc2ncccn2)COc2ccccc2OC1", "activity change, negative = inhibition": "inactive: 36.6%"}
{"smiles": "Nc1cccc([As](=O)(O)c2ccccc2)c1", "activity change, negative = inhibition": "inactive: -5.61%"}
{"smiles": "O=[As](O)(c1cccs1)c1cccs1", "activity change, negative = inhibition": "inactive: 9.67%"}
{"smiles": "Cc1ccc(OCC(=O)OC2CN3CCC2CC3)cc1", "note": "(stereo unspecified)", "activity change, negative = inhibition": "inactive: 6.26%"}
{"smiles": "NS(=O)(=O)c1cccc(NC(=O)COC(=O)C(O)(c2ccccc2)c2ccccc2)c1", "activity change, negative = inhibition": "inactive: 3.59%"}
{"smiles": "O=P1(Nc2ccc(Br)cn2)COc2ccccc2OC1", "activity change, negative = inhibition": "inactive: 14.6%"}
{"smiles": "Cc1ccc(C(=O)OC2CN3CCC2CC3)cc1", "note": "(stereo unspecified)", "activity change, negative = inhibition": "inactive: -1.66%"}
{"smiles": "CC1CCC(C(C)C)C(OP(=O)(Nc2ccccn2)c2ccccc2)C1", "note": "(stereo unspecified)", "activity change, negative = inhibition": "inactive: 7.38%"}
{"smiles": "Cc1nn(-c2ccccc2)c2c1P(=O)(N1CCOCC1)N(C)C(c1ccccc1)=N2", "note": "(stereo unspecified)", "activity change, negative = inhibition": "inactive: 12.2%"}
{"smiles": "CN(C)C1(CNC(=O)c2ccc(S(C)(=O)=O)cc2)CCCCC1", "activity change, negative = inhibition": "inactive: 6.3%"}
{"smiles": "O=C(/C=C/c1ccccc1)OC1CN2CCC1CC2", "note": "(stereo unspecified)", "activity change, negative = inhibition": "inactive: 12.5%"}
{"smiles": "CN(C(=O)Cc1ccccc1)[C@@H]1CC[C@]2(CCCO2)C[C@H]1N1CCCC1", "activity change, negative = inhibition": "inactive: 14.9% and inactive: -13%"}
{"smiles": "CCOP1(=S)c2c(C)nn(CCC#N)c2N=C(c2ccc(F)cc2)N1C", "note": "(stereo unspecified)", "activity change, negative = inhibition": "inactive: -1.78%"}
{"smiles": "N#CCCN(C(=O)COC(=O)C(O)(c1ccccc1)c1ccccc1)c1ccc(F)cc1", "activity change, negative = inhibition": "inactive: 4.04%"}
{"smiles": "O=[N+]([O-])c1ccc2c(c1)nnn2O", "activity change, negative = inhibition": "inactive: 9.39%"}
{"smiles": "O=P(Nc1nccs1)(Oc1ccccc1)Oc1ccccc1", "activity change, negative = inhibition": "inactive: 12.1%"}
{"smiles": "O=P(Nc1nccs1)(c1ccccc1)c1nc2ccccc2s1", "note": "(stereo unspecified)", "activity change, negative = inhibition": "inactive: -9.62%"}
{"smiles": "CCOP1(=S)c2c(C)nn(CCC#N)c2N=C(c2ccccc2F)N1C", "note": "(stereo unspecified)", "activity change, negative = inhibition": "inactive: 2.8%"}
{"smiles": "CS(=O)(=O)c1cc([N+](=O)[O-])c2no[n+]([O-])c2c1", "activity change, negative = inhibition": "inactive: 0.074%"}
{"smiles": "O=C(O)COc1ccc([As](=O)(O)O)cc1[N+](=O)[O-]", "activity change, negative = inhibition": "inactive: 34.6%"}
{"smiles": "Nc1ccccc1[As](=O)(O)c1ccccc1", "activity change, negative = inhibition": "inactive: 1.86%"}
{"smiles": "Nc1cccc2c([As](=O)(O)O)cccc12", "activity change, negative = inhibition": "inactive: 10.1%"}
{"smiles": "Cc1ccc(NCCc2c([N+](=O)[O-])cc([N+](=O)[O-])cc2[N+](=O)[O-])cc1", "activity change, negative = inhibition": "inactive: -8.73%"}
{"smiles": "CCCOP(=S)(Nc1nc(N)cc(=O)[nH]1)OCCC", "activity change, negative = inhibition": "inactive: 27.6%"}
{"smiles": "CCOP(=O)(Nc1cccc2ccccc12)OCC", "activity change, negative = inhibition": "inactive: -2.97%"}
{"smiles": "COc1cc(C2NCCC3(OCCO3)C2(C)C)cc(OC)c1OC", "note": "(stereo unspecified)", "activity change, negative = inhibition": "inactive: 9.09%"}
{"smiles": "O=C(OC1CN2CCC1CC2)c1ccc(Cl)cc1", "note": "(stereo unspecified)", "activity change, negative = inhibition": "inactive: -0.513%"}
{"smiles": "CS(=O)(=O)c1ccc(Cl)c(NC(=O)COC(=O)C(O)(c2ccccc2)c2ccccc2)c1", "activity change, negative = inhibition": "inactive: -2.28%"}
{"smiles": "O=[As](O)(O)c1cccnc1", "activity change, negative = inhibition": "inactive: 1.38%"}
{"smiles": "COc1cc(C(=O)NCC2(N3CCOCC3)CCCCC2)cc(Cl)c1OC(C)C", "activity change, negative = inhibition": "inactive: 11%"}
{"smiles": "O=[As](O)(c1cccc(O)c1)c1cccc(O)c1", "activity change, negative = inhibition": "inactive: 10.7%"}
